Reference: paper PMC12836348, “Alanine Mutagenesis Identifies Specific Amino Acids of Nemertide Alpha‑1 Activity and Its Binding to Target Receptors” (Journal of Natural Products, 2025)
“Also recorded” adds a separate entry of the source.

By UniProt entry, the sequences of proteins in these tests, tags left out.
UniProt P08104, whole entry: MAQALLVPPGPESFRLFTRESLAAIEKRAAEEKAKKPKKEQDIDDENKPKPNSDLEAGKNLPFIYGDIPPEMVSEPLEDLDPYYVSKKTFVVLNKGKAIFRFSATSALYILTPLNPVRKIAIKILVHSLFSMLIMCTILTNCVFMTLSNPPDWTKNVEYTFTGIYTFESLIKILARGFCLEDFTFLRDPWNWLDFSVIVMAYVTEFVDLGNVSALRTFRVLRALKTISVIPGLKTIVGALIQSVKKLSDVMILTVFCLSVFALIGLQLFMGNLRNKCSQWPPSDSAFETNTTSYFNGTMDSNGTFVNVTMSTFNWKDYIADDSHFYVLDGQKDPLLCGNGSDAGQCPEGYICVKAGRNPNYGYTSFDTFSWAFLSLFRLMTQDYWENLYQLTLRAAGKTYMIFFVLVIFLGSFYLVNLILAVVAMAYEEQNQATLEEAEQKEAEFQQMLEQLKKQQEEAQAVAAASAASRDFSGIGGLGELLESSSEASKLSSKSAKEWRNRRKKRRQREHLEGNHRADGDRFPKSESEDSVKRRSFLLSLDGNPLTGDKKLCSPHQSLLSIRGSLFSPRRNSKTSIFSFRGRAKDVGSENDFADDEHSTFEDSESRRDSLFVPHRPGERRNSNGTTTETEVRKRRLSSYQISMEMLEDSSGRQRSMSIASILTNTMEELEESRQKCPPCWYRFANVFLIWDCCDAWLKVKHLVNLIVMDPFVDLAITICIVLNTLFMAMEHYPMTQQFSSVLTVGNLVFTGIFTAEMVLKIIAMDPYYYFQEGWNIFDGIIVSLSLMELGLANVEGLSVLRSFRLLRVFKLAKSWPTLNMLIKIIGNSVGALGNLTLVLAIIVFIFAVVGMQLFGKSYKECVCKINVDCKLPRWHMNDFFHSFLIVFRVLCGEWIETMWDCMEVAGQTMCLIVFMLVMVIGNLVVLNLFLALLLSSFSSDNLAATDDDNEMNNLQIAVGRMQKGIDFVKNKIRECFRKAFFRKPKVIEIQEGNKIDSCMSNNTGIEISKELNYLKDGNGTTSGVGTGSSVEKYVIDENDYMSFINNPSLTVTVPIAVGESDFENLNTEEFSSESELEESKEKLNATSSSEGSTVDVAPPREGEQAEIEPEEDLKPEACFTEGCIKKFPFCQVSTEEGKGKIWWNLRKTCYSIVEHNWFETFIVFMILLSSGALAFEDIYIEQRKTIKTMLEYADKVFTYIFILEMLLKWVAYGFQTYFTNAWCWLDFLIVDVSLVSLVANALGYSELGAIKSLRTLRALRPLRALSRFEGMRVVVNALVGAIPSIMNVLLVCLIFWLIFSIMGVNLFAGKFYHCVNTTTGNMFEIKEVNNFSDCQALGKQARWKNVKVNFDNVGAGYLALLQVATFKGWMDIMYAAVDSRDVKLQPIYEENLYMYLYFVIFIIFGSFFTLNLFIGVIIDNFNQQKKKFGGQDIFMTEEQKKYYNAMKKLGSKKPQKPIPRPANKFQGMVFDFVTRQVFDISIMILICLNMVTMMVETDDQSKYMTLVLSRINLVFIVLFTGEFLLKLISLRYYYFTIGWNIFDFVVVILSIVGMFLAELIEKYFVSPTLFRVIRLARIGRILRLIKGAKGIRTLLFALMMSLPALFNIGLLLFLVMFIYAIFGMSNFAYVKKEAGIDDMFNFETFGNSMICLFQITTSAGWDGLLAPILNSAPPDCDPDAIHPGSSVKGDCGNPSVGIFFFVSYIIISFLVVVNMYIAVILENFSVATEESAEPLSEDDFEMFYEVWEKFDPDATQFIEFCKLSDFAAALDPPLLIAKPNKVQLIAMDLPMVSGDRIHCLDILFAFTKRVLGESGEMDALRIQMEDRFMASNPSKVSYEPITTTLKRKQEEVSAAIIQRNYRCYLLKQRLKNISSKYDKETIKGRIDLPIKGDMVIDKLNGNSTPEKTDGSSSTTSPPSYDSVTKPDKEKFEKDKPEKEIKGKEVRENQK
UniProt P15390, whole entry: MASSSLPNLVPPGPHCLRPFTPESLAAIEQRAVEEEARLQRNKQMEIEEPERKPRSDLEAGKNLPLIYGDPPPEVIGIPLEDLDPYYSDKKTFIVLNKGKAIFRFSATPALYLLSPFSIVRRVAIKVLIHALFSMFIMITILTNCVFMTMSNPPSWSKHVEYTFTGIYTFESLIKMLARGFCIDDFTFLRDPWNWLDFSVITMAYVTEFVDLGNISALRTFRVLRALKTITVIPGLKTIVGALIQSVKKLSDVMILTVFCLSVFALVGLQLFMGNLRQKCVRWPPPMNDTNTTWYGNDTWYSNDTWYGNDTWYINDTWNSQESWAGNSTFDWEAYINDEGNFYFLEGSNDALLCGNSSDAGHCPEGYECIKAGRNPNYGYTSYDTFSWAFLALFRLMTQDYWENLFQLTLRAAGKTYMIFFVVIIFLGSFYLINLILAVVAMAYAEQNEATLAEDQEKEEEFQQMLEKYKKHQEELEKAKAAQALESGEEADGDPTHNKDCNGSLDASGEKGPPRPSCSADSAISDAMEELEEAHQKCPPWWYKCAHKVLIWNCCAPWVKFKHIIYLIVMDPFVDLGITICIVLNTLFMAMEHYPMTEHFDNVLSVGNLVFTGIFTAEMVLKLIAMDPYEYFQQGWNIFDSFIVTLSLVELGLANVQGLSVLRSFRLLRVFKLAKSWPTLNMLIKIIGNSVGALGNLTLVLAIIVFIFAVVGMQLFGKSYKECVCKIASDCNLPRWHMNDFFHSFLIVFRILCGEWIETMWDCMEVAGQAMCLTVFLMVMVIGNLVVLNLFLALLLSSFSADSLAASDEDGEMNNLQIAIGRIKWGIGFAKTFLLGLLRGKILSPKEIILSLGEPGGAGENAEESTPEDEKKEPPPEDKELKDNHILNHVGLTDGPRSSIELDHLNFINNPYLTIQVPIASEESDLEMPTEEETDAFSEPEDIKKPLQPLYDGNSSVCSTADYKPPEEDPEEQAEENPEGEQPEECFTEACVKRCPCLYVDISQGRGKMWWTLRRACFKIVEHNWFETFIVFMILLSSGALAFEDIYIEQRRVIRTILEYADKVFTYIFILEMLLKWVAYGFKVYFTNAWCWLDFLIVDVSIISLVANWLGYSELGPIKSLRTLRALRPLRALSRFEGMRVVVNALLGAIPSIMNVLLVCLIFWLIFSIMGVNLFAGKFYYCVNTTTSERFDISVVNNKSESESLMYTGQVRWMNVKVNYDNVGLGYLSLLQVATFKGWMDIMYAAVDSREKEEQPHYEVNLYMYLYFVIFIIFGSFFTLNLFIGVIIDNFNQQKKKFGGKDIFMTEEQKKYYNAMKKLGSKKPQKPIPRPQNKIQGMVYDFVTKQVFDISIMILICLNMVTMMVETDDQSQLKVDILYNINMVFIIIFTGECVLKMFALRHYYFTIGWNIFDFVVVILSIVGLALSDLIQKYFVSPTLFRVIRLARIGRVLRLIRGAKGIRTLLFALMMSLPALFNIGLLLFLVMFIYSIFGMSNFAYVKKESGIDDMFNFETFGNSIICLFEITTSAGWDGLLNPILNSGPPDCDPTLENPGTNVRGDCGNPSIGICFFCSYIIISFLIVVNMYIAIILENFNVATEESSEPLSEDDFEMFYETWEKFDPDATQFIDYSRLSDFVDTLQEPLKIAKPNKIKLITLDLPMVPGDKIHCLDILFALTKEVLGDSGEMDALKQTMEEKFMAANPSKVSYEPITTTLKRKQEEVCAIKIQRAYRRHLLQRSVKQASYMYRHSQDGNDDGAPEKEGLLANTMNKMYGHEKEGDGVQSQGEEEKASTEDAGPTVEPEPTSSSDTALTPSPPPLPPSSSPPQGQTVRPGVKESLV
UniProt Q14524, whole entry: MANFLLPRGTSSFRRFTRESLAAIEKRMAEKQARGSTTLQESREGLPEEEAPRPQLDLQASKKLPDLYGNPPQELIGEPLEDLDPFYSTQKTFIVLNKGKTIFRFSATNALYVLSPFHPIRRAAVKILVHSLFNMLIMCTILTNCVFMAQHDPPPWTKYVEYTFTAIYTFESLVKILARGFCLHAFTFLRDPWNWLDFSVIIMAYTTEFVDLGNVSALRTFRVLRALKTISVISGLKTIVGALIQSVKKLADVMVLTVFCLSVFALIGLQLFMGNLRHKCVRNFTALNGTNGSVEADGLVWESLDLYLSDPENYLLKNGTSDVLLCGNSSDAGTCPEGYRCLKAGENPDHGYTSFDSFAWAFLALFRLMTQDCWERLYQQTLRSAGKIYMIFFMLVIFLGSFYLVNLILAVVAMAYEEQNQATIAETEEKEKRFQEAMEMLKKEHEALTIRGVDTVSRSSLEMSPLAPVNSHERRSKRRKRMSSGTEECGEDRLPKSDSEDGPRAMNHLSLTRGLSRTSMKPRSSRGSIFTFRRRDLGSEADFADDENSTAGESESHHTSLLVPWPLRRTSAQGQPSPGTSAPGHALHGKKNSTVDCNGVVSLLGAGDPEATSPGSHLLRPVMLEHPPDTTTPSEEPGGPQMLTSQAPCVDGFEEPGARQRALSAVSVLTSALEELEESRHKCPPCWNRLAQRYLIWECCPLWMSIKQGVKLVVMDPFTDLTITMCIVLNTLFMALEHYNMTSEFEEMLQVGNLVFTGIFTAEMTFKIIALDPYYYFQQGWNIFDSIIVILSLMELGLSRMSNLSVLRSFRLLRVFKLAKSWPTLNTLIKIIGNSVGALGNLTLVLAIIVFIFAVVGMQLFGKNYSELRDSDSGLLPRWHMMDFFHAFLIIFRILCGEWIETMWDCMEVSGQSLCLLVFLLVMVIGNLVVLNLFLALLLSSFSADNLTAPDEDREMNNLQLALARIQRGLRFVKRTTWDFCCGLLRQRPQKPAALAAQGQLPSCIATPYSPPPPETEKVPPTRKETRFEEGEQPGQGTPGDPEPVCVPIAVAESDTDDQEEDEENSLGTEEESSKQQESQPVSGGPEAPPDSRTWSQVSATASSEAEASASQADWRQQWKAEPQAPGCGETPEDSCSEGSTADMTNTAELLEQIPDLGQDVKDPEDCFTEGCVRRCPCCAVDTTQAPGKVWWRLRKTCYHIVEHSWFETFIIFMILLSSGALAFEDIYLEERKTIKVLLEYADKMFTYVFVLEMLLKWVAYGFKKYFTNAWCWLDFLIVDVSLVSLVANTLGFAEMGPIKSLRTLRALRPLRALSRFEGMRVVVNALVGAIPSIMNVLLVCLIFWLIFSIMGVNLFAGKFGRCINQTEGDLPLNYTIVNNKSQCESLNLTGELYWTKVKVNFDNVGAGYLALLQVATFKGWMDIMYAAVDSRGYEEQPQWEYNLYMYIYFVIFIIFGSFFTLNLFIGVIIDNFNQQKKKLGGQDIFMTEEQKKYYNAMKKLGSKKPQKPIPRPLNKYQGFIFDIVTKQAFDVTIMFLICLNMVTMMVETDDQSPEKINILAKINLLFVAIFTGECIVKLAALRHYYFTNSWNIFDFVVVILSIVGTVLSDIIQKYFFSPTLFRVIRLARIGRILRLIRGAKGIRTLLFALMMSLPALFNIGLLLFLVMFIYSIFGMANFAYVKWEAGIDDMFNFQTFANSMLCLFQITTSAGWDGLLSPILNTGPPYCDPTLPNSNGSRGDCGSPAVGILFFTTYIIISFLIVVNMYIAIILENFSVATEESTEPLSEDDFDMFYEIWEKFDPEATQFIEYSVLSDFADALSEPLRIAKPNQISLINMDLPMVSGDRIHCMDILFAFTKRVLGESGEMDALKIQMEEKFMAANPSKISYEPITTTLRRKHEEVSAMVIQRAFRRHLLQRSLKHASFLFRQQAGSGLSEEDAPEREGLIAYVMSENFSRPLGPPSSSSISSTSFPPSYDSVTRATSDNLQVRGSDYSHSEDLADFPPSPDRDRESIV

Tests used:
[1] = biological target: T1, rNaV1.3 (Rattus norvegicus, UniProt P08104); test: Two-electrode voltage clamp, Nav1.3 in Xenopus laevis oocytes; format: cell-based; conditions: ex vivo, Hill fit, n ≥ 3, highest tested concentration 50 μM
T1 construct: expressed in transfected cells; host or cells: Xenopus laevis oocytes (cRNA injection)

[2] = biological target: T2, rNaV1.4 (Rattus norvegicus, UniProt P15390); test: Two-electrode voltage clamp, Nav1.4 in Xenopus laevis oocytes; format: cell-based; conditions: ex vivo, Hill fit, n ≥ 3, highest tested concentration 50 μM
T2 construct: expressed in transfected cells; host or cells: Xenopus laevis oocytes (cRNA injection)

[3] = tested on: BgNav1; test: Two-electrode voltage clamp, BgNav1 expressed in Xenopus laevis oocytes; format: cell-based, Blattella germanica; conditions: ex vivo, I30ms/Ipeak, Hill fit, n ≥ 3, highest tested concentration 50 μM
[4] = biological target: T3, hNaV1.5 (Homo sapiens, UniProt Q14524); test: Two-electrode voltage clamp, Nav1.5 in Xenopus laevis oocytes; format: cell-based
T3 construct: expressed in transfected cells; host or cells: Xenopus laevis oocytes (cRNA injection)
Description: (§1) For the expression of NaV channels (hNav1.1, rNaV1.2, rNaV1.3, rNaV1.4, hNaV1.5, hNaV1.6, hNav1.7, and the insect channel BgNaV1) in Xenopus laevis oocytes, the linearized plasmids were transcribed using the T7 or SP6 mMESSAGE-mMACHINE transcription kit (Ambion, Carlsbad, CA, USA). The harvesting of stage V and VI oocytes from an anaesthetized female X. laevis frog was described previously. , Oocytes were injected with 50 nL of cRNA at a concentration of 1 ng/nL using a microinjector (Drummond Scientific, Broomall, PA, USA). The oocytes were incubated in a solution containing 96 mM NaCl, 2 mM KCl, 1.8 mM CaCl2, 2 mM MgCl2, and 5 mM HEPES (pH 7.4), supplemented with 50 mg/L gentamycin sulfate. Two-electrode voltage-clamp recordings were performed at room temperature (18–22 °C) using a Geneclamp 500 amplifier (Molecular Devices, Downingtown, PA, USA) controlled by a pClamp data acquisition system (Axon Instruments, Union City, CA, USA). Whole-cell currents from oocytes were recorded 1–4 days after injection. The bath solution composition was 96 mM NaCl, 2 mM KCl, 1.8 mM CaCl2, 2 mM MgCl2, and 5 mM HEPES (pH 7.4). Voltage and current electrodes were filled with 3 M KCl. The resistances of both electrodes were kept between 0.8 and 1.5 MΩ. The elicited Nav channel currents were filtered at 1 kHz and sampled at 20 kHz by using a four-pole low-pass Bessel filter. Leak subtraction was performed using a −P/4 protocol. For the electrophysiological analysis of toxins, a series of protocols was applied from a holding potential of −90 mV with a start-to-start interval of 0.2 Hz. Sodium current traces were evoked by 100 ms depolarizations to V max (the voltage corresponding to maximum sodium current in control conditions).
(§2) To assess the concentration–response relationships, data were fitted with the Hill equation: y = 100/[1 + (EC50/[toxin])^ h ], where y is the amplitude of the toxin-induced effect (y = I 30 ms/I peak where I 30 ms is the current value at 30 ms in the presence of toxin and I peak is the peak current amplitude in control conditions), EC50 is the toxin concentration at half-maximal efficacy, [toxin] is the toxin concentration, and h is the Hill coefficient. Potassium and calcium currents were evoked by a 500 ms depolarization to the voltage corresponding to the maximal activation of the channels in control conditions from a holding potential of −90 mV. Elicited currents were sampled at 1 kHz and filtered at 0.5 kHz. For nAChR experiments, the oocytes were clamped at a holding potential of −70 mV and continuously superfused with ND96 via gravity-fed tubes at 0.1–0.2 mL min^–1, with 5 min incubation times for the bath-applied peptides. ACh was applied via gravity-fed tubes until a peak current amplitude was obtained (1–3 s), with 1–2 min washout periods between applications. The nAChR were gated by a particular time duration pulse of ACh for the respective nAChR subtype at 2 mL min^–1. Data were sampled at 500 Hz and filtered at 200 Hz. ASIC1a currents were measured in ND96 solutions at a pH of 7.4 and 4.5, at a holding potential of −70 mV during 400 s, and the data were filtered at 20 Hz. EnaC currents were measured by clamping oocytes at a holding potential of −60 mV and perfusing with low- (1 mM) and high- (96 mM) sodium ND96. Opioid currents were measured by clamping the potential to −70 mV and changing the perfusion solution from ND96 to high-potassium (HK) solution composed of 96 mM KCl, 2 mM NaCl, 1 mM MgCl2, 1.8 mM CaCl2, and 5 mM HEPES, with a final pH of 7.5. The HK-evoked increase in inward K^+ currents represents a “basal” K^+ current (IK, basal). In the presence of HK, 0.2 μM morphine was applied to oocytes and then washed out by HK. TRPV1 and TRPA1 currents were continuously monitored in a perfusing ND96 solution, following a protocol at −90 mV for 400 s. The sampling rate was set at 100 Hz, and the signals were filtered at 20 Hz. One μM capsaicin and 10 μM capsazepine were used for TRPV1. […]

[5] = biological target: T4, hNaV1.6 (Homo sapiens, UniProt Q9UQD0); test: Two-electrode voltage clamp, Nav1.6 in Xenopus laevis oocytes; format: cell-based; conditions: two-electrode voltage clamp in Xenopus laevis oocytes, Hill fit, n ≥ 3; highest tested concentration 50 μM
T4 construct: expressed in transfected cells; host or cells: Xenopus laevis oocytes (cRNA injection)
Description: as §1, §2

[6] = ex vivo, two-electrode voltage clamp in Xenopus laevis oocytes, Hill fit, n ≥ 3, highest tested concentration 50 μM

SMILES	EC50 [1] [nM]	EC50 [2] [nM]	EC50 [3] [nM]	EC50 [4, 6] [nM]	EC50 Nav1.6 [5]	EC50 Nav1.4 [2]	EC50 Nav1.5 [4, 6]	fold higher activity on Nav1.5 than alpha-1 [4] [fold]	EC50 Nav1.3 [1]
CC[C@H](C)[C@@H]1NC(=O)[C@@H](NC(=O)CN)CSSC[C@@H]2NC(=O)[C@@H]3CSSC[C@@H](C(=O)N[C@@H](CC(N)=O)C(=O)N4C[C@H](O)C[C@H]4C(=O)N4C[C@H](O)C[C@H]4C(=O)N[C@@H](CC(N)=O)C(=O)N[C@@H](CCC(N)=O)C(=O)O)NC(=O)[C@H](CCCCN)NC(=O)[C@H](Cc4ccccc4)NC(=O)[C@H](CC(N)=O)NC(=O)[C@H](Cc4c[nH]c5ccccc45)NC(=O)CNC(=O)[C@H](CSSC[C@H](NC(=O)[C@H](CCCCN)NC(=O)[C@H](CO)NC(=O)CNC(=O)[C@H]([C@@H](C)O)NC(=O)[C@H](C)NC1=O)C(=O)N[C@@H]([C@@H](C)O)C(=O)N[C@@H](CC(C)C)C(=O)N[C@@H](CO)C(=O)N[C@@H](CCCCN)C(=O)NCC(=O)N3)NC(=O)[C@H](CC(N)=O)NC(=O)[C@H](CCCCN)NC(=O)[C@H]([C@@H](C)O)NC2=O [Peptide F8K]	467 ± 64.9	1200 ± 147	91.9 ± 8.4	224 ± 6.33	–	–	–	–	–
CC[C@H](C)[C@@H]1NC(=O)[C@@H](NC(=O)CN)CSSC[C@@H]2NC(=O)[C@@H]3CSSC[C@@H](C(=O)N[C@@H](CC(N)=O)C(=O)N4C[C@H](O)C[C@H]4C(=O)N4C[C@H](O)C[C@H]4C(=O)N[C@@H](CC(N)=O)C(=O)N[C@@H](CCC(N)=O)C(=O)O)NC(=O)[C@H](CCCCN)NC(=O)[C@H](C)NC(=O)[C@H](CC(N)=O)NC(=O)[C@H](Cc4c[nH]c5ccccc45)NC(=O)CNC(=O)[C@H](CSSC[C@H](NC(=O)[C@H](Cc4ccccc4)NC(=O)[C@H](CO)NC(=O)CNC(=O)[C@H]([C@@H](C)O)NC(=O)[C@H](C)NC1=O)C(=O)N[C@@H]([C@@H](C)O)C(=O)N[C@@H](CC(C)C)C(=O)N[C@@H](CO)C(=O)N[C@@H](CCCCN)C(=O)NCC(=O)N3)NC(=O)[C@H](CC(N)=O)NC(=O)[C@H](CCCCN)NC(=O)[C@H]([C@@H](C)O)NC2=O [Peptide F24A]	–	–	1050 ± 196	–	inactive at the tested concentration	no detectable activity	–	–	–
CC[C@H](C)[C@@H]1NC(=O)[C@@H](NC(=O)CN)CSSC[C@@H]2NC(=O)[C@@H]3CSSC[C@@H](C(=O)N[C@@H](CC(N)=O)C(=O)N4C[C@H](O)C[C@H]4C(=O)N4C[C@H](O)C[C@H]4C(=O)N[C@@H](CC(N)=O)C(=O)N[C@@H](CCC(N)=O)C(=O)O)NC(=O)[C@H](CCCCN)NC(=O)[C@H](Cc4ccccc4)NC(=O)[C@H](CC(N)=O)NC(=O)[C@H](Cc4c[nH]c5ccccc45)NC(=O)CNC(=O)[C@H](CSSC[C@H](NC(=O)[C@H](Cc4ccccc4)NC(=O)[C@H](CO)NC(=O)CNC(=O)[C@H]([C@@H](C)O)NC(=O)[C@H](C)NC1=O)C(=O)N[C@@H]([C@@H](C)O)C(=O)N[C@@H](C)C(=O)N[C@@H](CO)C(=O)N[C@@H](CCCCN)C(=O)NCC(=O)N3)NC(=O)[C@H](CC(N)=O)NC(=O)[C@H](CCCCN)NC(=O)[C@H]([C@@H](C)O)NC2=O [Peptide L11A]	–	–	298 ± 35.2	–	–	–	in the same range as alpha-1	–	–
CC[C@H](C)[C@@H]1NC(=O)[C@@H](NC(=O)CN)CSSC[C@@H]2NC(=O)[C@@H]3CSSC[C@@H](C(=O)N[C@@H](CC(N)=O)C(=O)N4C[C@H](O)C[C@H]4C(=O)N4C[C@H](O)C[C@H]4C(=O)N[C@@H](CC(N)=O)C(=O)N[C@@H](CCC(N)=O)C(=O)O)NC(=O)[C@H](CCCCN)NC(=O)[C@H](Cc4ccccc4)NC(=O)[C@H](CC(N)=O)NC(=O)[C@H](Cc4c[nH]c5ccccc45)NC(=O)CNC(=O)[C@H](CSSC[C@H](NC(=O)[C@H](Cc4ccccc4)NC(=O)[C@H](C)NC(=O)CNC(=O)[C@H]([C@@H](C)O)NC(=O)[C@H](C)NC1=O)C(=O)N[C@@H]([C@@H](C)O)C(=O)N[C@@H](CC(C)C)C(=O)N[C@@H](CO)C(=O)N[C@@H](CCCCN)C(=O)NCC(=O)N3)NC(=O)[C@H](CC(N)=O)NC(=O)[C@H](CCCCN)NC(=O)[C@H]([C@@H](C)O)NC2=O [Peptide S7A]	–	–	35.9 ± 13.3	–	slightly higher activity	–	in the same range as alpha-1	–	–
CC[C@H](C)[C@@H]1NC(=O)[C@@H](NC(=O)CN)CSSC[C@@H]2NC(=O)[C@@H]3CSSC[C@@H](C(=O)N[C@@H](CC(N)=O)C(=O)N4C[C@H](O)C[C@H]4C(=O)N4C[C@H](O)C[C@H]4C(=O)N[C@@H](CC(N)=O)C(=O)N[C@@H](CCC(N)=O)C(=O)O)NC(=O)[C@H](CCCCN)NC(=O)[C@H](Cc4ccccc4)NC(=O)[C@H](CC(N)=O)NC(=O)[C@H](Cc4c[nH]c5ccccc45)NC(=O)CNC(=O)[C@H](CSSC[C@H](NC(=O)[C@H](Cc4ccccc4)NC(=O)[C@H](CO)NC(=O)CNC(=O)[C@H]([C@@H](C)O)NC(=O)[C@H](C)NC1=O)C(=O)N[C@@H](C)C(=O)N[C@@H](CC(C)C)C(=O)N[C@@H](CO)C(=O)N[C@@H](CCCCN)C(=O)NCC(=O)N3)NC(=O)[C@H](CC(N)=O)NC(=O)[C@H](CCCCN)NC(=O)[C@H]([C@@H](C)O)NC2=O [Peptide T10A]	–	–	155 ± 132	–	slightly higher activity	–	–	1.2	–
CC[C@H](C)[C@@H]1NC(=O)[C@@H](NC(=O)CN)CSSC[C@@H]2NC(=O)[C@@H]3CSSC[C@@H](C(=O)N[C@@H](CC(N)=O)C(=O)N4C[C@H](O)C[C@H]4C(=O)N4C[C@H](O)C[C@H]4C(=O)N[C@@H](CC(N)=O)C(=O)N[C@@H](CCC(N)=O)C(=O)O)NC(=O)[C@H](CCCCN)NC(=O)[C@H](Cc4ccccc4)NC(=O)[C@H](CC(N)=O)NC(=O)[C@H](Cc4c[nH]c5ccccc45)NC(=O)CNC(=O)[C@H](CSSC[C@H](NC(=O)[C@H](Cc4ccccc4)NC(=O)[C@H](CO)NC(=O)CNC(=O)[C@H]([C@@H](C)O)NC(=O)[C@H](C)NC1=O)C(=O)N[C@@H]([C@@H](C)O)C(=O)N[C@@H](CC(C)C)C(=O)N[C@@H](CO)C(=O)N[C@@H](CCCCN)C(=O)NCC(=O)N3)NC(=O)[C@H](CC(N)=O)NC(=O)[C@H](CCCCN)NC(=O)[C@H](C)NC2=O [Peptide T17A]	–	–	825.9 ± 4	–	–	no detectable activity	no detectable activity; also recorded: inactive at the tested concentration	–	no detectable activity
